Test results published in article PMC12519216.

Biological target: acyl carrier protein (ACP), unacylated form (mouse (endogenous in cerebellum)) (UniProt Q9CR21)
Experiment: SDS-PAGE immunoblot; brain lysates in RIPA buffer, WT and Mecr285/del10 mice; NuPAGE 4 to 12% Bis-Tris gel; blot with ACP antibodies

stoichiometry N: 2
Substance: acyl carrier protein (ACP), unacylated form (from UniProt Q9CR21 69-156) (natural protein)
